In data set [1] the target is T1, UGT2B7 (Homo sapiens, UniProt P16662).
T1 sequence (P16662 24-529): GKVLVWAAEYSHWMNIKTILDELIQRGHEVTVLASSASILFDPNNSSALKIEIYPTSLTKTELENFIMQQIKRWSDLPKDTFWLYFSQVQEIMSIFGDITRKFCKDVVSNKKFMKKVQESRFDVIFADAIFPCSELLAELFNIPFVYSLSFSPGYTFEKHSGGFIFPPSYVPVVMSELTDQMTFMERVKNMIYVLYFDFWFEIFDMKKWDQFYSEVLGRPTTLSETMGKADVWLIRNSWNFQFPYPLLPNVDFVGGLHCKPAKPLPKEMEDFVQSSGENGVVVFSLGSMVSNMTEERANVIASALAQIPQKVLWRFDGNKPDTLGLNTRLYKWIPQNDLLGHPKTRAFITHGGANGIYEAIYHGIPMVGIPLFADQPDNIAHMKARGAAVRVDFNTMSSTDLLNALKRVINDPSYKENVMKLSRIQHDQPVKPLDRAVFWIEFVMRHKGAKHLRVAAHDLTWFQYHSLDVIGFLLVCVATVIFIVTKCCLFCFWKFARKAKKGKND
The settings on record: summary in discussion.

Substrate in data set [2]: COc1ccccc1N1CCN(C[C@H](O)COc2cccc3ccccc23)CC1
Nature of the data set: cells, lysate or membranes named. The note with it: other: NAF glucuronidation by UGT1A9; pH 7.5; 37.0 °C.

Substrate in data set [3]: COc1ccccc1N1CCN(C[C@@H](O)COc2cccc3ccccc23)CC1
Nature of the data set: cells, lysate or membranes named. The note with it: other: NAF glucuronidation by UGT1A9; pH 7.5; 37.0 °C.

In the case of `COc1ccccc1N1CCN(C[C@@H](O)COc2cccc3ccccc23)CC1` [R(+)-NAF], the “concentration at which UGT2B7 is competitively inhibited” value in data set [1] lay in the range of 10 to 100 µM.
`COc1ccccc1N1CCN(C[C@H](O)COc2cccc3ccccc23)CC1` [S(-)-NAF]: the “concentration at which UGT2B7 is competitively inhibited” value in data set [1] is 10 to 100 µM.

B1: recombinant human UGT1A9 (Homo sapiens) (protein)
chain: GKLLVVPMDGSHWFTMRSVVEKLILRGHEVVVVMPEVSWQLGRSLNCTVKTYSTSYTLEDLDREFKAFAHAQWKAQVRSIYSLLMGSYNDIFDLFFSNCRSLFKDKKLVEYLKESSFDAVFLDPFDNCGLIVAKYFSLPSVVFARGILCHYLEEGAQCPAPLSYVPRILLGFSDAMTFKERVRNHIMHLEEHLLCHRFFKNALEIASEILQTPVTEYDLYSHTSIWLLRTDFVLDYPKPVMPNMIFIGGINCHQGKPLPMEFEAYINASGEHGIVVFSLGSMVSEIPEKKAMAIADALGKIPQTVLWRYTGTRPSNLANNTILVKWLPQNDLLGHPMTRAFITHAGSHGVYESICNGVPMVMMPLFGDQMDNAKRMETKGAGVTLNVLEMTSEDLENALKAVINDKSYKENIMRLSSLHKDRPVEPLDLAVFWVEFVMRHKGAPHLRPAAHDLTWYQYHSLDVIGFLLAVVLTVAFITFKCCAYGYRKCLGKKGRVKKAHKSKTH
Usually Km stands for the concentration of substrate that gives half-maximal velocity. As for B1, the Km was found to be 3 µM in data set [2] and 7 µM in data set [3].
